Measured values taken from patent US20110110945A1, “Immunoglobulin Fusion Proteins and Methods of Making” (TransTech Pharma, Inc., priority 2007, published 2011).
Where two headings read alike, the source gives them in different places. Marks after values point to notes of the source that are not given here.

Assays:
[1] = cited from earlier work; for half-life in plasma: plasma (human plasma)
[2] = system: male C57BL/6 mice, cerebral ischemia/reperfusion; experiment: Animal model of stroke (ischemia and reperfusion, infarct volume); format: in vivo, mouse; conditions: dose not given; just prior to reperfusion; compared to saline
Procedure: Also, fusion proteins of the present invention comprising a RAGE ligand binding site may be used to treat atherosclerosis and other cardiovascular disorders such as stroke. […] In this model, the middle carotid artery of a mouse is ligated and then reperfused to form an infarct. To assess the efficacy of RAGE fusion proteins to treat or prevent stroke, mice were treated with sRAGE or TTP-4000 or control immunoglobulin just prior to reperfusion.
TTP-4000 was also compared to sRAGE in a disease relevant animal model of stroke. In this model, the middle carotid artery of a mouse was ligated for 1 hour followed by 23 hours of reperfusion at which point the mice were sacrificed and the area of the infarct in the brain was assessed. […]
Mice were injected intraperitoneally, 1 hour after the initiation of ischemia. […] After the nylon suture had been in place for 1 hour, the animal was re-anesthetized, rectal temperature was recorded and the suture was removed and the incision closed.
Infarct volume was determined by anesthetizing the animals with an intraperitoneal injection of sodium pentobarbital (50 mg/kg) and then removing the brains. […] The infarct area in each section was determined with a computer-assisted image analysis system, consisting of a Power Macintosh computer equipped with a Quick Capture frame grabber card, Hitachi CCD camera mounted on a camera stand. […]

sRAGE: soluble RAGE: N-terminal extracellular domain of RAGE comprised of the V and C domains
half-life ([1]; assessed by retention of immunoreactivity sRAGE): less than 2 hours
half-life in plasma [1]: only a few hours
half-life in plasma ([1]; listed as human sRAGE): about 2 hours
% Reduction of Infarct [2]: 15%*
